Measured values taken from paper PMC11266321 (EJNMMI Radiopharmacy and Chemistry, 2024).

By UniProt entry, the sequences of proteins in these tests, tags left out.
UniProt P30542, whole entry: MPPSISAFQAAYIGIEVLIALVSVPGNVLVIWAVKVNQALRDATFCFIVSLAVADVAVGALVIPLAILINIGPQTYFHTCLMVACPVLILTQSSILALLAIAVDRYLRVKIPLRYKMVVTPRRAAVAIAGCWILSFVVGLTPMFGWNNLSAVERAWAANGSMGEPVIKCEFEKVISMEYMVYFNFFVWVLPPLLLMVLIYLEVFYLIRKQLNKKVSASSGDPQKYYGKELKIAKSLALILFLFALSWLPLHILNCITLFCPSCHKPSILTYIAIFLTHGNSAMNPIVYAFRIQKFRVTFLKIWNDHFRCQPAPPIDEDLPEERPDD
UniProt P21728, whole entry: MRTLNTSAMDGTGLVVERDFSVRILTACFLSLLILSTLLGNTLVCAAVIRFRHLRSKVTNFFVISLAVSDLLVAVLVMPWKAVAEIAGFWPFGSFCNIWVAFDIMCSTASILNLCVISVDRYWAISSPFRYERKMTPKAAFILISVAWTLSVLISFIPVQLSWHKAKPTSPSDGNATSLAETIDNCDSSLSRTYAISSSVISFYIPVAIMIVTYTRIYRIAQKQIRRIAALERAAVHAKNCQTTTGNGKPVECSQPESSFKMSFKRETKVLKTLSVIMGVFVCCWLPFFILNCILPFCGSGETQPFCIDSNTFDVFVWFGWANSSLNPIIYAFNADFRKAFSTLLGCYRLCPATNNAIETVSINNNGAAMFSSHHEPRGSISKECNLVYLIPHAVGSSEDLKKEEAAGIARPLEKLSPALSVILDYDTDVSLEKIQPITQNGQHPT

What was measured:
[1] = target: T1, Adenosine A1 (Homo sapiens, UniProt P30542); test: Radioligand binding inhibition, Adenosine A1; settings: 10 µM; radioligand [^3H]DPCPX; mean of duplicate
T1 construct: Sekisui Medical (contract laboratory)
Description: (§1) Interaction of MMP with 28 binding sites was examined, including major classes of neurotransmitter receptor, uptake system, and ion channels (Sekisui Medical, Naka, Japan). MMP was tested in all assays at 10 µM. […] 10.2.3 (GraphPad Software, San Diego, CA). Each determination was made in duplicate.
(§2) Test substance concentration : 10 µM, positive substance concentration : 10 µM
(§3) Data are expressed as the mean values of duplicate samples.
(§4) The % inhibition was calculated from “100 – binding ratio”.
(§5) Binding ratio: [(B - N) / (B0 - N)] × 100 (%)
(§6) B: Bound radioactivity in the presence of test substance and positive substance (individual value)
(§7) B0: Total bound radioactivity in the absence of test substance and positive substance (mean value)
(§8) N: Non-specific bound radioactivity (mean value)

[2] = target: T2, Dopamine D1 (Homo sapiens, UniProt P21728); test: Radioligand binding inhibition, Dopamine D1; settings: 10 µM; radioligand [^3H]SCH23390; mean of duplicate
T2 construct: Sekisui Medical (contract laboratory)
Description: as §1, §2, §3, §4, §5, §6, §7, §8

CCCn1c(=O)c2[nH]c(C3CCCC3)nc2n(CCC)c1=O [DPCPX, reference compound]
Inhibition ratio (%) [1]: 98.97%

CN1CCc2cc(Cl)c(O)cc2[C@@H](c2ccccc2)C1 [R(+)-SCH-23390, reference compound]
Inhibition ratio (%) [2]: 98.17%
